Data from PMC5909127, “Optimization of a “bump-and-hole” approach to allele-selective BET bromodomain inhibition” (Chemical Science, 2018).

Key:
[1] = molecular target: L/V BET bromodomains (BD1 and BD2 of BRD2, BRD3 and BRD4); assay: competitive AlphaLISA (Bio-JQ1 displacement); type: binding, human; details: mean and SD of all somatic bromodomains; active enantiomer concentration
BRD2 BD2 L/V [2] = molecular target: T1, BRD2 BD2 L/V (Homo sapiens, UniProt P25440, L383V); assay: competitive AlphaLISA; type: binding; details: read-out: AlphaLISA pIC50 Value BRD2 BD2 L/V (converted)
BRD4 BD1 L/V [3] = molecular target: T2, BRD4 BD1 L/V (Homo sapiens, UniProt O60885, L94V); assay: competitive AlphaLISA; type: binding
BRD4 BD1 L/V [4] = molecular target: T2, BRD4 BD1 L/V; assay: ITC; type: binding
BRD2 BD2 L/V [5] = molecular target: T1, BRD2 BD2 L/V; assay: ITC; type: binding; details: ITC stoichiometry
BRD2 BD1 L/V = BRD2 BD1 L/V (Homo sapiens, UniProt P25440, L110V); assay: ITC; type: binding; details: ITC stoichiometry
BRD4 BD1 WT = BRD4 BD1 WT (Homo sapiens, UniProt O60885); assay: ITC; type: binding
[6] = molecular target: L/V somatic BET bromodomains; assay: ITC; details: mean and SD of all somatic bromodomains
BRD4 BD2 WT = BRD4 BD2 WT (Homo sapiens, UniProt O60885); assay: ITC; type: binding
BRD4 BD2 L/V [7] = molecular target: T3, BRD4 BD2 L/V (Homo sapiens, UniProt O60885, L387V); assay: competitive AlphaLISA; type: binding
BRD3 BD2 L/V = BRD3 BD2 L/V (Homo sapiens, UniProt Q15059, L345V); assay: ITC; type: binding; details: ITC stoichiometry
BRD4 BD2 L/V [8] = molecular target: T3, BRD4 BD2 L/V; assay: ITC; type: binding
BRD3 BD1 L/V = BRD3 BD1 L/V (Homo sapiens, UniProt Q15059, L70V); assay: ITC; type: binding; details: ITC stoichiometry
BRDT BD1 L/V = BRDT BD1 L/V (Homo sapiens, UniProt Q58F21, L63V); assay: competitive AlphaLISA; type: binding
BRD3 BD2 WT = BRD3 BD2 WT (Homo sapiens, UniProt Q15059); assay: competitive AlphaLISA; type: binding

For `CCNC(=O)[C@H](C)[C@@H]1N=C(c2ccc(Cl)cc2)c2cc(OC)ccc2-n2c(C)nnc21` (relative stereo) [Compound 16], the “AlphaLISA pIC50 ± SD L/V” value [1] was 6.7 ± 0.2, the IC50 (BRD2 BD2 L/V [2]) was 251 nM and the IC50 (BRD4 BD1 L/V [3]) was 251 nM. The Kd (BRD4 BD1 L/V [4]) was 160 nM, the “ΔH BRD4 BD1 L/V” value (BRD4 BD1 L/V [4]; ITC) was -9.5 kcal/mol and the “N BRD4 BD1 L/V” value (BRD4 BD1 L/V [4]; ITC stoichiometry) was 0.92. The “N BRD2 BD2 L/V” value (BRD2 BD2 L/V [5]) was 0.62, the “N BRD2 BD1 L/V” value (BRD2 BD1 L/V) was 0.75 and the “ΔH BRD4 BD1 WT” value (BRD4 BD1 WT; ITC) was -10.2 kcal/mol. The “N BRD4 BD1 WT” value (BRD4 BD1 WT; ITC stoichiometry) was 0.96, the “ITC pKd ± SD L/V” value [6] was 6.9 ± 0.2 and the “ΔH BRD4 BD2 WT” value (BRD4 BD2 WT; ITC) was -3.6 kcal/mol. The “N BRD4 BD2 WT” value (BRD4 BD2 WT; ITC stoichiometry) was 0.81, the IC50 (BRD4 BD2 L/V [7]) was 251 nM and the “N BRD3 BD2 L/V” value (BRD3 BD2 L/V) was 0.74. The Kd (BRD4 BD2 L/V [8]) was 80 nM, the “ΔH BRD4 BD2 L/V” value (BRD4 BD2 L/V [8]; ITC) was -8.6 kcal/mol and the “N BRD4 BD2 L/V” value (BRD4 BD2 L/V [8]; ITC stoichiometry) was 0.83. For the same compound, the “N BRD3 BD1 L/V” value (BRD3 BD1 L/V) was 0.64.
For `COC(=O)[C@H](C)[C@@H]1N=C(c2ccc(Cl)cc2)c2cc(OC)ccc2-n2c(C)nnc21` (relative stereo) [Compound 3], the IC50 (BRDT BD1 L/V) was 50.1 nM, the IC50 (BRD3 BD2 WT) was 501 nM and the IC50 (BRD4 BD2 L/V [7]) was 50.1 nM.
